Test results from patent publication US20070172469A1, “Methods For Inhibiting Viral Replication In Vivo” (priority 2002, published 2007).

Tested on: AVA5 cells
Test: Toxicity in AVA5 cells, neutral red dye uptake
Settings: 3 days

alpha interferon
CC50: >10000 IU/ml
